The chains behind the UniProt entries cited, without tags or fusion partners. Where a name states a change or a piece, a line headed by the entry shows the natural chain unless it says otherwise.
UniProt Q9RUP8: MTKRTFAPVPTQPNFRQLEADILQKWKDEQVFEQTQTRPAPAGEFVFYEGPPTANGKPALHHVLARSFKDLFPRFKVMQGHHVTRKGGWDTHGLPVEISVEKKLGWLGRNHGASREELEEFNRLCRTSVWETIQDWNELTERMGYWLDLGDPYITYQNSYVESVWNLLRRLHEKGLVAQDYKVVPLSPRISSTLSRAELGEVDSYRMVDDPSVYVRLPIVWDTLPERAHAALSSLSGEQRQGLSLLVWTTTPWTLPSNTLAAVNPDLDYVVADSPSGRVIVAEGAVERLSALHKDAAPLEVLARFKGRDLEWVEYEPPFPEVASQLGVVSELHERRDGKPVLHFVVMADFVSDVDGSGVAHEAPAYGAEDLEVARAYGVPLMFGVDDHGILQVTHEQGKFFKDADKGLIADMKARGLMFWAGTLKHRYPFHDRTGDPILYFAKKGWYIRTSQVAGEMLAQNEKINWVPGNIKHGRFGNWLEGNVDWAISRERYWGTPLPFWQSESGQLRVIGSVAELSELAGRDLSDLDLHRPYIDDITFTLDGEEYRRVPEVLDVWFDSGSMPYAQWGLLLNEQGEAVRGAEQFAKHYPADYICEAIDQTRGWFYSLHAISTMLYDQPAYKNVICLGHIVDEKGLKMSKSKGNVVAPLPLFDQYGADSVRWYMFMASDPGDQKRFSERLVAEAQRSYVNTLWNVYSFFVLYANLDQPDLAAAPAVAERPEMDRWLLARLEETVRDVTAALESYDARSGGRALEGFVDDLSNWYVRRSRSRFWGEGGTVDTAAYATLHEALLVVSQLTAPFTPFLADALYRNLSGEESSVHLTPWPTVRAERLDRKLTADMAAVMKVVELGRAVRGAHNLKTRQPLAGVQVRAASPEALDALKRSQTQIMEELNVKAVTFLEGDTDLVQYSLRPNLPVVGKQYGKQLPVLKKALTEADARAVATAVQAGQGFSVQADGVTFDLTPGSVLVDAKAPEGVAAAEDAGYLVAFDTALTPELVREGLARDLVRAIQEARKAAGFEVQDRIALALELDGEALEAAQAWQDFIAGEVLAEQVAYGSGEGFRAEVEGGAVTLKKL

According to PMC10485003, “Antibiotic hyper-resistance in a class I aminoacyl-tRNA synthetase with altered active site signature motif” (Nature Communications, 2023):

Experiments:
Test in all cases: ATP-PPi exchange assay, mupirocin inhibition of amino acid activation
W130Q PmIleRS2 = type: biochemical, Priestia (Bacillus) megaterium; conditions: c (mupirocin) = 1.0 μM; c (Ile) 10.0 μM; Replica 1-3; raw data for KI(MUP) towards Ile
Experimental: (§1) L-Ile and ATP concentrations ranged from 1/10 KM to 10 KM values. When measuring the KI towards one of the substrates, the other was held in saturation (concentrations at least 10 KM). The aliquots of the reaction mixture (1–2.5 μl) were quenched in 2 volumes of 500 mM NaOAc pH = 4.5, 0.1% SDS, and formed ^32P-ATP was separated from the remaining ^32P-PPi by thin-layer chromatography on Polygram CEL 300 PEI UV254 TLC plates (Macherey-Nagel, cat: 801063) using 750 mM KH2PO4 pH=3.5, 4 M urea buffer. Visualization and quantification of the signals was performed using a Typhoon Phosphoimager 5 (General Electric) and accompanying ImageQuant™ TL software (SV: 10.2). The kinetic constants were determined using a global fit option of the competitive inhibition model of GraphPad Prism 6 software (SV: 6.01). All experiments were performed in triplicates. The kcat was determined by dividing the maximal velocity, VM, with the used enzyme concentration.
Supplementary Fig. 8: The HXGH motif displacement is not dictated by a steric clash with a nearby α2 helix residue. a, c, d, e) Structural analysis identifies the α2 helix position (W130) that is in close proximity to the 4th His of the HXGH motif. A sequence alignment highlights this position as bulky in IRS2 (W130) but not in IRS1 (Q136), […]

mut-GVHH PmIleRS2 = biological target: T1, mut-GVHH PmIleRS2 (Priestia megaterium, UniProt A0A0B6AVD3, G56H/H54G); type: biochemical, Priestia (Bacillus) megaterium
T1 sequence (A0A0B6AVD3 1-1032 H54G/G56H): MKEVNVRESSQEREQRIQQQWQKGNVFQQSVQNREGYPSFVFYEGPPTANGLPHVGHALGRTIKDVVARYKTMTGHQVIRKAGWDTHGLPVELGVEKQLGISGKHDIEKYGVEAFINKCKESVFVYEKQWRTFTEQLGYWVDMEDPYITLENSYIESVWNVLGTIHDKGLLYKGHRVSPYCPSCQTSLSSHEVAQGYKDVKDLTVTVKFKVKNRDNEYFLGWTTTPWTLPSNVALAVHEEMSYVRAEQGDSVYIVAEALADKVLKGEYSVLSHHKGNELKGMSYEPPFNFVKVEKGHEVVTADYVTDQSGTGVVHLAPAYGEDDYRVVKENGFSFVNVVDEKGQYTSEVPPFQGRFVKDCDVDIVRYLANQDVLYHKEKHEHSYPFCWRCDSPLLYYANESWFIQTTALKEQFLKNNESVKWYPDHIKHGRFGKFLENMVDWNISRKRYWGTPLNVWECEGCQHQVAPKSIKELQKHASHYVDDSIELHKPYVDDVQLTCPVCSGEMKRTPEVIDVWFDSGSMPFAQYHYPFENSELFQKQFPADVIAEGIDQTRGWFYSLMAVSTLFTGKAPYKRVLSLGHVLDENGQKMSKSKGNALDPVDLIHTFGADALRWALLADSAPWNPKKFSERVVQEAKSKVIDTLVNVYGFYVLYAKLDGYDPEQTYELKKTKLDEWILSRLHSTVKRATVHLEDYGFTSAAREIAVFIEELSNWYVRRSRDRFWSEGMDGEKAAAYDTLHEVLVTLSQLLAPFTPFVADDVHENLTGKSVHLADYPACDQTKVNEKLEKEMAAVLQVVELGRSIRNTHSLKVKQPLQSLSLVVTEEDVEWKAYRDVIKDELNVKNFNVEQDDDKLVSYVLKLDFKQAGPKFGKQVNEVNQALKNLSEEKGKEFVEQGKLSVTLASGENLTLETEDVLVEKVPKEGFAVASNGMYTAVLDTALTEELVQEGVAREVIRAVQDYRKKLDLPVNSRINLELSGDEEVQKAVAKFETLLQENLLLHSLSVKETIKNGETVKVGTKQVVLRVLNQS
Experimental: as §1, with “concentration. […]” for “concentration.”
(§2) variable substrate (ATP or Ile) was varied in the range of 0.1 KM to 10 KM. The other substrate (Ile or ATP) was kept in excess at 5 to 10 KM. Data were globally fitted to the competitive inhibition model using GraphPad prism 6.01 for Windows software. The values represent the average value ± SD of three independent experiments. Source data are provided as a Source Data file.

wt-ALHH DrIleRS2 = biological target: T2, wt-ALHH DrIleRS2 (Deinococcus radiodurans, UniProt Q9RUP8); type: biochemical; conditions: amino acid activation step; higher
T2 construct: hexa-histidine tag (pET28b(+)) (N); made in house; host or cells: E. coli BL21(DE3)
Experimental: as §1, with “concentration. […]” for “concentration.”
as §2

`C/C(=C\C(=O)OCCCCCCCCC(=O)O)C[C@@H]1OC[C@H](C[C@@H]2O[C@H]2[C@@H](C)[C@H](C)O)[C@@H](O)[C@H]1O` [mupirocin] was tested, and the “vo (initial enzyme velocity)” value (W130Q PmIleRS2) was 0.01783 mM/min and 0.01799 mM/min, the “FOLD Change of KI, single replicates” value (mut-GVHH PmIleRS2; MUT/WT PmIleRS2, Repl1-Repl3, towards Ile) was 451.9 and 482.8 and 354.7 and the vo (mut-GVHH PmIleRS2; c (mupirocin) = 0.5 mM, c (Ile) 100.0 μM, Replica 3) was 0.01792 mM/min. The “Ki relative to the Ki of the IleRS2 enzymes carrying the canonical HXGH motif” value (wt-ALHH DrIleRS2) was > 10^3 fold.

Several values for one entry are separate records, joined by “and”; a condition that tells them apart may be missing. Equal values may be shown once.
